Assay outcomes as filed in PubChem.
Hits are enriched below; roughly 0.66% of the tested compounds scored in any of these assays.
gsp agonist = activates gsp, the McCune-Albright syndrome mutation | gsp mutant cells, cAMP HTRF, 30 min | Potency, µM (top dose mostly 76.9 µM), without a hit: at the highest dose activation (cAMP increase), hits mostly activators | 340,000 compounds, 0.13% hits | AID 624287; active = well fitted activation curve with a large enough effect; inconclusive = small, poorly fitted or top-dose-only effect, or another doubt; inactive = no such curve, though single readings can be large or run the other way; cell line not stated here;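 also: phosphodiesterase inhibitor Ro 20-1724 added with compounds to block cAMP breakdown; nearly all actives have a fitted effect of over 60% in size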
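Cells in DMEM/10% FBS with G418 were pretreated with compounds in DMSO plus […] (300 uM stock) for 30 min at 37C. cAMP was measured by HTRF (cAMP-d2 plus anti-cAMP antibody-K) after 30 min at room temperature.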
gsp antag = gsp mutant antagonism; AID 624288; Potency, µM (top dose mostly 76.9 µM), for inactives: top-dose activity change, negative = inhibition, actives largely listed as inhibitors; 340,000 compounds, 0.4% hits; gsp-mutant cells, cAMP HTRF, 30 min; calls by dose curve; cell line not stated here;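 also: intracellular cAMP measured with PDE inhibitor Ro 20-1724 present during compound exposure; % is scaled to controls: 0 for no effect and ±100 for the full control effect; nearly all actives have a fitted effect of over 65% in size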
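HTRF cAMP measurement after 30 min RT detection following 30 min, 37C compound treatment alongside […] (added as 300 uM solution) in G418-selected cells seeded at 2000/well and grown 16–24 h.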
Rango dissoc inh = prevents RanGTP from dissociating the Rango-importin beta complex | O95149+P62826 | Biochemical FRET Rango-importin beta, RanGTP-induced dissociation | Potency, µM (highest dose often 46.1 µM), for the others: top-dose activity change, negative = inhibition | 340,000 compounds, 0.071% hits; also: % of control where 0% means no effect; nearly all actives have a fitted effect of over 45% in size
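Compounds sat 5 min at room temperature with 0.1 uM Rango biosensor plus 0.25 uM importin beta, then FRET pre-read. RanGTP-RCC1 (0.6 uM Ran, 2mM GTP, 0.2 uM RCC1) added for 45 min, and the CFP/YFP post-read measured blocked complex dissociation.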
Rango complex inh = Rango-importin beta binding inhibition | Q14974 | 340,000 compounds, 0.031% hits | Rango CFP/YFP FRET sensor + importin beta, 45 min | Potency, µM (titrated, usually from 92.2 µM), for inactives: top-dose inhibition of complex formation | AID 540263;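 also: 0% = DMSO wells and 100% = buffer wells lacking importin beta; nearly all actives have a fitted effect of over 15% in size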
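FRET biosensor (snurportin 1 IBB flanked by EYFP and cerulean), 50 nM, with compound 5 min, then 0.125 microM importin beta in PBS, 1 mM DTT, 0.02% Tween-20, 0.1% BSA. CFP/YFP ratio read after 45 min at room temperature; pre-read flags interference.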
Active calls of the source: *; ? = inconclusive; · = no result; [ ] = dose if it differs, or a comment. Unless noted, calls follow the shape of the full dose curve. Potency is read from the fitted curve at half-maximal effect.

SMILES	gsp agonist	gsp antag	Rango dissoc inh	Rango complex inh
COc1cc(/C=C/CNC[C@H]2O[C@@H](n3cc(C)c(=O)[nH]c3=O)C[C@@H]2O)ccc1O	28%	·	·	·
CCOc1ccccc1C(=O)Nc1ccc(S(=O)(=O)Nc2cc(OC)nc(OC)n2)cc1	20µM*	2%	3%	7%
Cc1ccnc(NS(=O)(=O)c2ccc(NC(=O)Cc3ccccc3)cc2)n1	-2%	3%	-1%	0%
CCOc1ccccc1C(=O)Nc1ccc(S(=O)(=O)Nc2nccc(C)n2)cc1	6.3µM*	29%	-12%	?
CCOc1ccc(C(=O)Nc2ccc(S(=O)(=O)Nc3nccc(C)n3)cc2)cc1OCC	4%	-7%	1%	-6%
COc1cc(NS(=O)(=O)c2ccc(NC(=O)COc3ccccc3Cl)cc2)nc(OC)n1	-14%	-5%	7%	-4%
Cc1ccc(CC(=O)Nc2ccc(S(=O)(=O)Nc3nccc(C)n3)cc2)cc1	-15%	8.9µM*	-3%	1%
Cc1ccc(S(=O)(=O)N2C[C@H]3C(=O)C[C@@H](c4ccc(Cl)cc4)N(S(=O)(=O)c4ccccc4C)[C@H]3C[C@H]2c2ccccc2)cc1	-13%	·	·	·
O=[N+]([O-])c1c(Nc2cccc(O)c2)cc(Cl)c2nonc12	1%	35µM*	1%	-4%
CCc1cc(C(=O)NC2CCCc3c2cnn3-c2ccc(F)cc2F)no1 (stereo not drawn)	-34%	·	·	·
COc1ccccc1N1C(=O)S/C(=C\c2ccc(C)s2)C1=O	-37%	2%	2%	?
O=C(CN1C(=O)S/C(=C\c2cc(Cl)c(O)c(Cl)c2)C1=O)Nc1ccccc1	-32%	40µM*	?	?
Cc1cccc(NC(=O)CN2C(=O)S/C(=C\c3cc(C)n(C)c3C)C2=O)c1	24%	-2%	23µM*	?
COc1ccccc1N1C(=O)S/C(=C\c2cc(C)n(C)c2C)C1=O	-52%	-14%	18µM*	?
Cc1c(/C=C2\SC(=O)N(CC(=O)Nc3ccc4c(c3)OCO4)C2=O)c2ccccc2n1C	0%	4%	26µM*[inhibitor]	?
O=C(CN1C(=O)S/C(=C\c2ccccn2)C1=O)Nc1ccccc1	17%	3%	-14%	3%
CCn1cc(/C=C2\SC(=O)N(CC(=O)Nc3ccc4c(c3)OCO4)C2=O)c2ccccc21	-32%	20%	2%	-1%
CC(=O)Nc1ccc(S(=O)(=O)N(C)CC(=O)OC(C)C(=O)NC2(C#N)CCCCC2)cc1 (stereo not drawn)	-54%	·	·	·
NC(=O)C1CCN(C(=O)c2ccc(Cl)c(NC(=O)c3cccs3)c2)CC1	-17%	·	·	·
CCOC(=O)N1CCN(C(=O)c2oc3ccc(S(=O)(=O)N4CC(C)CC(C)C4)cc3c2C)CC1 (stereo not drawn)	3%	35µM*	-4%	-5%
CCOC(=O)C1CCN(C(=O)c2oc3ccc(S(=O)(=O)N4CC(C)CC(C)C4)cc3c2C)CC1 (stereo not drawn)	-1%	-18%	-11%	-2%
COc1ccc(-c2ccc(CN3C(C)C(=O)N(Cc4cn(CCC5OCCO5)nn4)CCS3(=O)=O)cc2)cc1OC (stereo not drawn)	-41%	·	·	·
O=c1ccn2c(n1)SC(c1ccccc1)C2 (stereo not drawn)	-3%	·	·	·
CC(C)C1C(=O)N(Cc2cn(CC3CCCCC3)nn2)CCS(=O)(=O)N1Cc1ccc(-c2cccc(CO)c2)cc1 (stereo not drawn)	-4%	·	·	·
Cc1ccn2c(-c3csc(NCc4ccccc4)n3)c(C)nc2c1	-40%	40µM*	-9%	0%
SMILES	gsp agonist	gsp antag	Rango dissoc inh	Rango complex inh
Cc1nc2ccccn2c1-c1csc(NCc2ccco2)n1	?	-6%	-5%	-1%
CCN(CC(=O)Nc1cccc(F)c1)Cc1nc2ccccc2c(=O)[nH]1	?	32µM*	5%	0%
Cc1ccc(-n2c(O)c(/C=N/Nc3ccc(S(=O)(=O)N4CCOCC4)cc3[N+](=O)[O-])c3ccccc3c2=O)c(C)c1	-27%[15.4 µM]	40µM*	-22%	0%
O=C(O)c1ccc(/C=N\Nc2ccc(S(=O)(=O)N3CCOCC3)cc2[N+](=O)[O-])cc1	?	1%	0%	0%
O=S(=O)(/N=C(\c1ccc(F)cc1)N1CCOCC1)c1ccccc1	-2%	·	·	·
COc1cccc(CC(=O)Nc2sc3c(c2C(N)=O)CCCC3)c1	35µM*	-3%	-5%	-2%
CC(=O)Nc1ccc(S(=O)(=O)Nc2cccc(-n3cnnn3)c2)cc1	7.9µM*	8%	21%	0%
COc1ccc(C)cc1NC(=O)c1ccccc1NS(=O)(=O)c1ccc(Cl)s1	8%	35µM*	-1%	0%
Cc1nc(-c2ccccc2)[nH]c(=O)c1Oc1ccc(Cl)cc1Cl	0%	-10%	5%	-1%
O=c1[nH]c(=S)[nH]cc1Oc1ccc(Cl)cc1Cl	6.3µM*	11%	0%	0%
O=C(NCc1cccnc1)Nc1ccc(Cl)cc1	29%	11µM*	22%	0%
COc1ccccc1OCCCc1c(C)n[nH]c1C	0%	-1%	2%	-3%
COc1ccccc1OCCCCCc1c(C)n[nH]c1C	-13%	35µM*	-7%	0%
COc1ccc(C(CNC(=O)c2cccc(N(C)C)c2)N2CCCC2)cc1 (stereo not drawn)	-21%	-5%	-1%	-3%
CCC1CCc2sc(C(=O)NCC(c3ccc(OC)cc3)N3CCCC3)cc2C1 (stereo not drawn)	-7%	9%	30%	58µM*
COc1ccc(C(CNC(=O)c2oc3ccc(Br)cc3c2C)N2CCCCC2)cc1 (stereo not drawn)	11%[15.4 µM]	2%	1.5µM*	-2%
CCC(C)n1c(SCC(=O)NC2CC2)nc2ccccc2c1=O (stereo not drawn)	-3%	·	·	·
COc1cccc(N2CCN(C(=O)C3CCN(C(=O)Nc4ccccc4)CC3)CC2)c1	14%	·	·	·
Cc1cc(C)c2c(=O)n3c(nc2c1)C(Cc1ccc(O)cc1)NC(=O)c1cc2ccccc2cc1-3 (stereo not drawn)	-40%	·	·	·
COc1cc(/C=C2\SC(=Nc3ccccc3)N(CCc3c[nH]c4ccccc34)C2=O)ccc1OC(C)C(=O)O (stereo not drawn)	8%[15.4 µM]	35µM*	9%	-4%
O=C1/C(=C/c2ccc(N3CCOCC3)o2)SC(=Nc2ccccc2)N1CCc1c[nH]c2ccccc12	-11%	8%	?	?
COc1ccc(N=C2S/C(=C\c3ccc(OC(C)C(=O)O)c(OC)c3)C(=O)N2CCc2c[nH]c3ccccc23)cc1 (stereo not drawn)	-25%	35µM*	0%	0%
Cc1ccc([C@H]2C[C@@H](O)[C@H](n3cc(C4CC4)nn3)CN2C(=O)c2cccs2)cc1	-74%	·	·	·
CCCNC(=O)CSc1nnc(NC(=O)C2CC(=O)N(c3ccccc3OC)C2)s1 (stereo not drawn)	-65%	·	·	·
CC(C)=CC(=O)OCc1csc(CC(=O)Nc2ccccc2C)n1	8%	-6%	-7%	0%

3 entries already listed, sorted by the number in Rango complex inh, low to high.
compound | Rango complex inh
Cc1nc2ccccn2c1-c1csc(NCc2ccco2)n1 | -1%
CC(=O)Nc1ccc(S(=O)(=O)Nc2cccc(-n3cnnn3)c2)cc1 | 0%
O=C(CN1C(=O)S/C(=C\c2ccccn2)C1=O)Nc1ccccc1 | 3%

Structural class: those above containing a furan ring, fused or not
SMILES	gsp agonist	gsp antag	Rango dissoc inh	Rango complex inh
CCOC(=O)N1CCN(C(=O)c2oc3ccc(S(=O)(=O)N4CC(C)CC(C)C4)cc3c2C)CC1 (stereo not drawn)	3%	35µM*	-4%	-5%
CCOC(=O)C1CCN(C(=O)c2oc3ccc(S(=O)(=O)N4CC(C)CC(C)C4)cc3c2C)CC1 (stereo not drawn)	-1%	-18%	-11%	-2%
Cc1nc2ccccn2c1-c1csc(NCc2ccco2)n1	?	-6%	-5%	-1%
COc1ccc(C(CNC(=O)c2oc3ccc(Br)cc3c2C)N2CCCCC2)cc1 (stereo not drawn)	11%[15.4 µM]	2%	1.5µM*	-2%
O=C1/C(=C/c2ccc(N3CCOCC3)o2)SC(=Nc2ccccc2)N1CCc1c[nH]c2ccccc12	-11%	8%	?	?
